From PMC7918823 (2021)

Chains of the proteins cited; added tags and fusions are not shown. Residues count along the entry.
UniProt P14740, 37-767 limits assumed: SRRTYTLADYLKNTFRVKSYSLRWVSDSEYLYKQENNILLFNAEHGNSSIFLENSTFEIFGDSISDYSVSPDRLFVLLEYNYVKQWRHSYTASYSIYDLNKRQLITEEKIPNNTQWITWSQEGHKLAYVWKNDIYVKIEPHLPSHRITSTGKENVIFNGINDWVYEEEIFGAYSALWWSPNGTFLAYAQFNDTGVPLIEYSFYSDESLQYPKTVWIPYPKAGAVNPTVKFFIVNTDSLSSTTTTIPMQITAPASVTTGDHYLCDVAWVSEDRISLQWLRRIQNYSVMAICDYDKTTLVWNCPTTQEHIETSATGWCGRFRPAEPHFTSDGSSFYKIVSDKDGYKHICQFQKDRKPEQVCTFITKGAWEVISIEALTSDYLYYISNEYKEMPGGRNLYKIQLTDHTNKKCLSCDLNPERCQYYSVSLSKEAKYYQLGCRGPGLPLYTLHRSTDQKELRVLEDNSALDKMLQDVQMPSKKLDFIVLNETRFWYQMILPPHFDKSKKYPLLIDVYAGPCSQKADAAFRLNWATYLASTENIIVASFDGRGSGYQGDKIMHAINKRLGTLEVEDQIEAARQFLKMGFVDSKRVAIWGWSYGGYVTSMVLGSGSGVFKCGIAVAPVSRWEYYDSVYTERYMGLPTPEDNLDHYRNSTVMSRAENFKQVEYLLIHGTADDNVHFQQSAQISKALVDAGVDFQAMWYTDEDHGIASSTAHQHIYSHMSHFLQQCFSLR

Target: blood DPP-4 activity (Rattus norvegicus, UniProt P14740)
Assay: In vivo DPP-4 inhibition assay (blood DPP-4 activity)
Conditions: SD rats, single oral dose 10 mg/kg

Cn1c(=O)cc(N2CCC[C@@H](N)C2)n(Cc2ccccc2C#N)c1=O [Alogliptin, reference compound]
DPP-4 blood activity (12 h): 20.95% | DPP-4 blood activity (24 h): 56.1% | DPP-4 blood activity (48 h): 97.05%
